From ChEMBL document CHEMBL1275334, “5-Piperazinyl-3-sulfonylindazoles as potent and selective 5-hydroxytryptamine-6 antagonists” (J Med Chem, 2010)

By UniProt entry, the sequences of proteins in these tests, tags left out.
UniProt P50406, whole entry: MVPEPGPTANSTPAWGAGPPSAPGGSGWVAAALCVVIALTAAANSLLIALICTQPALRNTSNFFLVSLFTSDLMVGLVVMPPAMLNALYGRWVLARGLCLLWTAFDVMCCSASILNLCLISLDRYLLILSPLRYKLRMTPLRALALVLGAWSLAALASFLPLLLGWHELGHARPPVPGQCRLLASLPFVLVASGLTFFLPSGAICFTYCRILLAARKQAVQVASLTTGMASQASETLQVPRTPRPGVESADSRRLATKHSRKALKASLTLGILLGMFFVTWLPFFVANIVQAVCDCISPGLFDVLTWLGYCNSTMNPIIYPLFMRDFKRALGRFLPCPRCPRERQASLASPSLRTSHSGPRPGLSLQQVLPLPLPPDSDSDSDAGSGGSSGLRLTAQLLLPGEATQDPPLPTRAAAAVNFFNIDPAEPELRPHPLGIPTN

Target: 5-hydroxytryptamine receptor 6 (Homo sapiens, UniProt P50406)
Experiment: Antagonist activity at human cloned 5HT6 receptor expressed in human HeLa cells by cyclase assay relative to control
Format: functional, cell-based

CCCn1nc(S(=O)(=O)c2cccc3ccccc23)c2cc(N3CCNCC3)ccc21
Imax: 99%
